This assay concerns the target T1, Histone deacetylase 8 (Homo sapiens, UniProt Q9BY41).
T1 sequence (Q9BY41 whole entry): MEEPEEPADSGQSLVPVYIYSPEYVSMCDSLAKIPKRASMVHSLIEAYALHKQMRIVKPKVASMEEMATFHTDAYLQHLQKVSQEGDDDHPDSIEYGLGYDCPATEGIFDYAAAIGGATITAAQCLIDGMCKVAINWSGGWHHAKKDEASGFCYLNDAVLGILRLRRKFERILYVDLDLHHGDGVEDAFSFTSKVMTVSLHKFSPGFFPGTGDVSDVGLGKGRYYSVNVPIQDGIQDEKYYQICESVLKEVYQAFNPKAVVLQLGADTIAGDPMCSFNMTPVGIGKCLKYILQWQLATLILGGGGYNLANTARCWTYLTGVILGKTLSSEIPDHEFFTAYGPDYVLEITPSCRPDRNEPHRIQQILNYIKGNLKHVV

This note sets out measurements from ChEMBL document CHEMBL3414430 (J Med Chem, 2015).

By IC50 is commonly meant the concentration that gives 50% inhibition. Low readings indicate higher potency, high ones lower potency. `O=C(CCCCCCC(=O)Nc1ccccc1)NO` [VORINOSTAT]: half-maximal inhibition (IC50) required 660 nM.
